Ab-14 light chain CDR variants: yeast mating affinities

From the AlphaSeq antibody data of Li et al. 2023 (doi:10.1038/s41467-023-39022-2), copy in the FLAb collection.

Target peptide (SARS-CoV-2 spike, HR2 region): PDVDLGDISGINAS

Ab-14 is the parent antibody, in scFv form: VH, then the linker GGGGSGGGGSGGGGS, then VL. The heavy chain is unchanged in all variants.
VH: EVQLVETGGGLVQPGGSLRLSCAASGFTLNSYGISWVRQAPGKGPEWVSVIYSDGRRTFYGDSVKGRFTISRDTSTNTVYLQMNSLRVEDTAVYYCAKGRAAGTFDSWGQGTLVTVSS
VL: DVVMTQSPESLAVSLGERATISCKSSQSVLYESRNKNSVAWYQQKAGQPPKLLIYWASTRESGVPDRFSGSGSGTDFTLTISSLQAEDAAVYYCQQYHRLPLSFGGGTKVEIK

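The starting antibody came from a phage panning campaign against this peptide. This is the validation round: designs drawn from the data on random variants, tested in the same kind of assay. Several design methods are mixed in this list. The scFvs were displayed on barcoded MATa yeast, the peptide on MATalpha yeast. After mating in shaken culture at 30 °C for 16 h, diploids were selected and their barcode pairs sequenced. Each replicate has its own calibration line, from reference interactions of the BCL2 family. There are six technical replicates.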

The parent's light chain CDRs are KSSQSVLYESRNKNSVA, WASTRES, QQYHRLPLS; each variant's own CDRs replace them letter for letter.
Affinities are written as log10 Kd with Kd in nM; a lower number is a better binder.
A mean of the replicates is given; it leaves out those without a signal.
An entry "no signal" has no value in the source: the pair was not observed among the diploids in any replicate. This suggests poor binding but is not conclusive.

CDR-L1 | CDR-L2 | CDR-L3 | log10 Kd (nM), mean | replicates with signal | control signals
TISQMTSLFSQTINNVA | EVSTREQ | QQYDRLPLQ | 0.57 | 6 of 6 | 0 of 18
HMSQVTMYGYWMKNSVA | QTSTREE | QQYDRLPLS | -0.09 | 6 of 6 | 2 of 18
HMSMLTLQGQRHRNSVA | QMTTRVN | QQYDRLPLI | 1.47 | 6 of 6 | 0 of 18
KSSQSVLYESRNKNHVA | WASTRES | QQYHRWPLS | no signal | 0 of 6 | 0 of 18
TISMHTSLFSQTINNVA | EVSEREQ | QQYDRLPLV | 1.41 | 6 of 6 | 1 of 18
HSSPSVLYESRNSNSVA | NASTRES | QQYHRLPLS | 0.24 | 6 of 6 | 0 of 18
KIDENWNHGANRDNNIA | EARTVGA | QQYFRLPII | 1.00 | 6 of 6 | 0 of 18
KISMMSTIESIMHNSVA | QTETREN | QQYDRLPLS | 1.00 | 6 of 6 | 2 of 18
KQSQSEDYGSRNKNSVA | DASQRES | QDYHRLPLS | -0.01 | 6 of 6 | 0 of 18
TISQSFLMENQFKNSVA | QASTRER | QCYDRLPLS | 0.79 | 6 of 6 | 2 of 18
KISMSTTFESRNKNSVA | ENSTRES | QSYHRLPLS | 3.45 | 2 of 6 | 2 of 18
MMSMGSLGGMRAKNNVA | QESTRES | QQYHRLPLI | 1.28 | 6 of 6 | 2 of 18
MLENKPTSFNDNKDAIA | DDSASTS | QQYDRLPLS | no signal | 0 of 6 | 0 of 18
KESQSVLYLSRNKNSVA | AASCRES | QAYHRLPLS | 2.57 | 2 of 6 | 0 of 18
SIYDATGLESRNKNPIA | DVSTRPS | QQYDRLPLS | 0.04 | 6 of 6 | 1 of 18
KQSQSVLPEWRNKNSVA | DASTRES | QQYHRLPLS | 0.20 | 6 of 6 | 0 of 18
KLLQSTVIESFNKNNVA | EMSTRES | QSYDRLPLS | 2.02 | 6 of 6 | 0 of 18
KLMQSQEYESRNKNSVA | EASTREL | QQYHRLPLS | -0.01 | 6 of 6 | 2 of 18
KVSQSHLGESRNKNSVA | NGSTRES | QQYHRLPLS | 0.16 | 6 of 6 | 0 of 18
QLDQAYRVGGLWKQSIA | HGSMRVQ | QCYERLPLS | 2.36 | 5 of 6 | 1 of 18
KIELDLTRYNNSYSAIA | GETQKAN | QQYSRLPLV | 0.92 | 6 of 6 | 0 of 18
QLGKQSQGLMVSNQSVA | NEEMRAK | QQYFRLPFI | 1.00 | 6 of 6 | 0 of 18
KLSQSGLYESRMKNSVA | NASTRES | QQYHRLPLS | -0.23 | 6 of 6 | 2 of 18
KLRQSNLYESRNPNSVA | AASTRES | QQYHRLPLS | -0.15 | 6 of 6 | 2 of 18
KLQQSYLYESRNKNSVA | SASTRES | QQYHRLPLS | -0.09 | 6 of 6 | 0 of 18
KFSQGPEYESRNKNSVA | WASTRES | QQYDRLPLS | 1.06 | 6 of 6 | 0 of 18
HISDLIMVASRNKNSVA | DESARPD | QQYHRLPLS | 0.37 | 6 of 6 | 1 of 18
KMSQSPLYESRNVNSVA | DASHRES | QQYHRLPLS | -0.15 | 6 of 6 | 1 of 18
KISQSFLYESRNKNSVA | GASTRES | QNYHRLPLS | 0.41 | 6 of 6 | 1 of 18
KVQSEALGGNQYTSNIA | GQSVAMP | QQYERLPLD | 0.19 | 6 of 6 | 1 of 18
SMMFDTSDNYHERQNVA | DGAAIMA | QQYSILPLS | 0.80 | 6 of 6 | 1 of 18
KLNDGFQQYERNNSSVA | DAINSEQ | QQYARLPLL | 0.96 | 6 of 6 | 1 of 18
KLSQSVLGGSRNKNSVA | HASQRES | QQYHRLPLY | 0.52 | 6 of 6 | 0 of 18
KLLQEVTGHSRNRYSVA | HNSTRED | QQYDRLPLS | 2.29 | 1 of 6 | 2 of 18
KMSQSELYESRNKKSVA | AASTRES | QQYHRLPNS | 1.80 | 5 of 6 | 0 of 18
KSSQRVLYEERNKNSVA | DASTRES | QQYHRLPLS | 0.50 | 6 of 6 | 3 of 18
KSSQSVLYESRNKNSVA | EVSMRES | QQYHRLPLS | 0.56 | 6 of 6 | 0 of 18
KSGQAVLYESRNKNSVA | GASLRES | QQYHRLPLS | 0.94 | 6 of 6 | 0 of 18
KLMQSHLYESRMANNVA | SASKREE | QQYHRLPLS | 0.28 | 6 of 6 | 1 of 18
KSSQSVLYFSWNKNSVA | WASQRES | QQYHRLPLS | no signal | 0 of 6 | 0 of 18
MISQLYNMGQFAINSVA | QAETRNA | QQYDRLPLT | 0.87 | 6 of 6 | 0 of 18
KQQQSDEGMQRNKNSVA | EASTRCM | QQYHRLPLS | -0.22 | 6 of 6 | 1 of 18
KIGGVTNGISRSKNSVA | EQSTRYD | QQYDRLPLS | 0.21 | 6 of 6 | 1 of 18
KLQSVTGTEKVHGNNVA | EMETREK | QQYNRLPLA | 1.15 | 6 of 6 | 0 of 18
KLSQSVLYESRMSNSVA | NASTRES | QQYHRLPLS | 0.21 | 6 of 6 | 4 of 18
KCSQSVLGESRNKNSFA | NASTRES | QQYSRLPLF | 0.27 | 6 of 6 | 1 of 18
KLSQSFLYESRWKNSVA | DASQRES | QQYHRLPLS | 0.27 | 6 of 6 | 0 of 18
KLSQSVWMLSRNKWSVA | NASYRES | QQYHRLPLS | 0.10 | 6 of 6 | 0 of 18
KSDQSVLYESRNKNSVA | DASTNEW | QQYHRLPLS | 0.72 | 6 of 6 | 2 of 18
KQSQSVLYESRNKNSVA | DASTRES | QQTHRLPLS | 0.02 | 6 of 6 | 0 of 18
KLSLSVLMESRNKNSVA | NASTRES | QQYHRLPLS | 1.31 | 6 of 6 | 1 of 18
KSSISYLYESGNKNSVA | NGSTRES | QQYHRLPLS | 2.49 | 6 of 6 | 0 of 18
MSSQSVLYEHRNKNSVA | WASTREA | QQYHRLPLL | 2.10 | 5 of 6 | 0 of 18
KFSQSELYESRNKNSVA | GASQRES | QQYHRLPLS | -0.10 | 6 of 6 | 1 of 18
NISINQMDEYKMRSNIA | NTSQKAM | QQYFHLPLM | 0.23 | 6 of 6 | 1 of 18
KVSQSVLYESRNKNSVA | EASTRED | QQYHRLPLS | 1.12 | 6 of 6 | 1 of 18
TLMQVGGYEMNQHNSIA | DLRTRED | QQYHRLPLS | 0.96 | 6 of 6 | 2 of 18
ILYESVGTLSRNRNSVA | DNSTRES | QQYDRLPLS | 2.22 | 1 of 6 | 0 of 18
LLQQSEGYESRNKNSVA | DASTREE | QAYHRLPLS | 0.12 | 6 of 6 | 0 of 18

The first 4 entries again:

CDR-L1 | CDR-L2 | CDR-L3 | log10 Kd (nM), mean | replicates with signal | control signals
TISQMTSLFSQTINNVA | EVSTREQ | QQYDRLPLQ | 0.57 | 6 of 6 | 0 of 18
HMSQVTMYGYWMKNSVA | QTSTREE | QQYDRLPLS | -0.09 | 6 of 6 | 2 of 18
HMSMLTLQGQRHRNSVA | QMTTRVN | QQYDRLPLI | 1.47 | 6 of 6 | 0 of 18
KSSQSVLYESRNKNHVA | WASTRES | QQYHRWPLS | no signal | 0 of 6 | 0 of 18

The authors averaged sequences with at least three values out of six and counted those with two or fewer as poor binders.
The range of this assay differs from that of the first round, and the authors advise against merging the two.
Of ten entries with the parent sequence, four were seen in most replicates (averages 0.34 to 2.37), three in one and three in none, so single entries are noisy.
Background: pairings of all light chain designs with three empty control strains gave a value in 4% of cases (median 2.64, 5th percentile 1.59). Values in that range, when seen in few replicates, are hard to tell from nonspecific mating. For each scFv, signals with the empty controls are counted beside the result.